Consider one substance from PMC3994986 (Pigment cell & melanoma research, 2012).

Amino acid sequences for entries named in this document (tags omitted). A change or cut given only in a name is not applied to a line headed by its entry.
UniProt Q01726: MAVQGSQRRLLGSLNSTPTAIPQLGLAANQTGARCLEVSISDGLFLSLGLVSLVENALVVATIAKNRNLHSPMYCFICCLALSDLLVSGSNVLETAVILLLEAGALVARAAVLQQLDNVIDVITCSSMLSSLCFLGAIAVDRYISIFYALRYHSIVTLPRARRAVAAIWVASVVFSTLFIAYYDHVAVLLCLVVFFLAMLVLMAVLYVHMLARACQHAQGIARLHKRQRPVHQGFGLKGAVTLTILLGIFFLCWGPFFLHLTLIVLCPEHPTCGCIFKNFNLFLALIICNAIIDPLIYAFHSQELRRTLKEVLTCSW

The target of this assay is human MC1R (Homo sapiens, UniProt Q01726). Description: pERK. The conditions noted are these: Figure S2A.

As to “NDP- melanocyte stimulating hormone [NDP-MSH]”, the “time after which pERK induction was down-regulated” value was 5–10 min.
